Only a part is listed here, and it is no random draw. Active and inactive are the calls of the source.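 Rule for the calls: active = more than half of replicates show inhibition above 20%; inconclusive = some but at most half of replicates above 20% inhibition; inactive = no replicate shows inhibition above 20%.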
These compounds were tested against Glycogen synthase kinase-3 alpha (Homo sapiens) (UniProt P49840) (assay: blockers of GSK3A enzyme activity – biochemical, luminescence, cell-free homogeneous, HTS, primary screen (AID 2650;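 note: GST-tagged GSK-3 alpha with peptide substrate and 25 µM ATP; 0% = DMSO neutral wells and 100% = GW8510 positive control wells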)). Conditions: GSK-3 alpha kinase, ADP-Glo luminescence, 60 min; at 10 µM; active compounds read high.

Sequences of proteins named here, by UniProt entry; tags and fusion partners are left off. A change or cut given only in a name is not applied to a line headed by its entry.
UniProt P49840: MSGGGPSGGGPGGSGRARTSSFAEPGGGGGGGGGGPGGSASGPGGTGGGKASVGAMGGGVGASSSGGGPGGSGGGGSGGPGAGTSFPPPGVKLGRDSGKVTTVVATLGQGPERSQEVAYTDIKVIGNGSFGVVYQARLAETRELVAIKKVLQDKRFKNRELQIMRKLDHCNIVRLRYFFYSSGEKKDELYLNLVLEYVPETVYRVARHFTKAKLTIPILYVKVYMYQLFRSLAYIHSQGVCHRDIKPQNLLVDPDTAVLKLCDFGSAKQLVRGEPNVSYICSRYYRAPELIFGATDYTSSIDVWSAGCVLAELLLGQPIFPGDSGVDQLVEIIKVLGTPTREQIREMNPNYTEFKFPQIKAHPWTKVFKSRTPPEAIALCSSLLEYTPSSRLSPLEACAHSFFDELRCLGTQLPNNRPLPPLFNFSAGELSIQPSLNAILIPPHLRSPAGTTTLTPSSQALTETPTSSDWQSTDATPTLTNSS

Question: For `CCOP(=O)(Nc1cccc2ccccc12)OCC`, which inhibition is on record?
Answer: inactive: -1.91%

Question: Which inhibition does the source give for `COc1cc(C2NCCC3(OCCO3)C2(C)C)cc(OC)c1OC` (stereo unspecified) here?
Answer: inactive: -2.05%

Question: `CCCOP(=S)(Nc1nc(N)cc(=O)[nH]1)OCCC` was tested. Which inhibition did it give?
Answer: inactive: -1.9%

Question: With `Cc1ccc(NCCc2c([N+](=O)[O-])cc([N+](=O)[O-])cc2[N+](=O)[O-])cc1` as the compound, how does the inhibition read?
Answer: inactive: 1.12%

Question: `Nc1cccc2c([As](=O)(O)O)cccc12` was tested. Which inhibition did it give?
Answer: inactive: -1.86%

Question: Which inhibition does the source give for `O=C(O)COc1ccc([As](=O)(O)O)cc1[N+](=O)[O-]` here?
Answer: inactive: -0.569%

Question: `Nc1ccccc1[As](=O)(O)c1ccccc1` was tested. Which inhibition did it give?
Answer: inactive: -0.222%

Question: For `CS(=O)(=O)c1cc([N+](=O)[O-])c2no[n+]([O-])c2c1`, which inhibition is on record?
Answer: inactive: 2.04%

Question: How did the inhibition turn out when `O=P(Nc1nccs1)(c1ccccc1)c1nc2ccccc2s1` (stereo unspecified) was run?
Answer: inactive: -3.03%

Question: For `O=P(Nc1nccs1)(Oc1ccccc1)Oc1ccccc1`, which inhibition is on record?
Answer: inactive: -1.11%

Question: For `CCOP1(=S)c2c(C)nn(CCC#N)c2N=C(c2ccccc2F)N1C` (stereo unspecified), which inhibition is on record?
Answer: inactive: -2.66%

Question: For `CN(C(=O)Cc1ccc(Cl)c(Cl)c1)[C@H]1CC[C@@]2(CCCO2)C[C@@H]1N1CCCC1`, which inhibition is on record?
Answer: inactive: -0.758%

Question: For `CN(C)C(=O)c1cc([N+](=O)[O-])cc2c1-c1c(cc([N+](=O)[O-])cc1[N+](=O)[O-])C2=O`, which inhibition is on record?
Answer: inactive: -2.16%

Question: How did the inhibition turn out when `O=[N+]([O-])c1ccc2c(c1)nnn2O` was run?
Answer: inactive: -1.67%

Question: With `CN(C(=O)Cc1ccccc1)[C@@H]1CC[C@]2(CCCO2)C[C@H]1N1CCCC1` as the compound, how does the inhibition read?
Answer: inactive: -1.44%

Question: Which inhibition does the source give for `CCOP1(=S)c2c(C)nn(CCC#N)c2N=C(c2ccc(F)cc2)N1C` (stereo unspecified) here?
Answer: inactive: -7.71%

Question: How did the inhibition turn out when `N#CCCN(C(=O)COC(=O)C(O)(c1ccccc1)c1ccccc1)c1ccc(F)cc1` was run?
Answer: inactive: -3.97%

Question: With `NC(=O)Nc1ccc([As](=O)(O)O)cc1` as the compound, how does the inhibition read?
Answer: inactive: -0.607%

Question: How did the inhibition turn out when `Cc1ccc2nc3c(c(C)c2c1)CC(C(Cl)Cl)S3` (stereo unspecified) was run?
Answer: inactive: 1.41%

Question: `Cc1ccc(OP(=O)(Nc2ccc([N+](=O)[O-])cn2)Oc2ccc(C)cc2)cc1` was tested. Which inhibition did it give?
Answer: inactive: -1.67%

Question: `COc1cc(C(=O)NCC2(N3CCOCC3)CCCCC2)ccc1OCC(C)C` was tested. Which inhibition did it give?
Answer: inactive: -3.54%

Question: How did the inhibition turn out when `C[As](=O)(O)c1cccc(C(=O)O)c1` was run?
Answer: inactive: 0.823%

Question: Which inhibition does the source give for `O=[As](O)(c1ccc(O)cc1)c1ccccc1O` here?
Answer: inactive: 9.54%

Question: With `O=[N+]([O-])c1cc([N+](=O)[O-])c(-c2ccn[nH]2)s1` as the compound, how does the inhibition read?
Answer: inactive: 0.914%

Question: For `CCN(CC)C(=S)SC(NC=O)C(Cl)(Cl)Cl` (stereo unspecified), which inhibition is on record?
Answer: inactive: -0.308%

Question: How did the inhibition turn out when `CC(C)NC(=O)NP(=O)(Oc1ccccc1)Oc1ccccc1` was run?
Answer: inactive: -2.42%

Question: Which inhibition does the source give for `CC(C)c1ccc(OP(=O)(Nc2ccccn2)Oc2ccccc2F)cc1` (stereo unspecified) here?
Answer: inactive: 9.54%

Question: Which inhibition does the source give for `ClCCSc1nnc(-c2cccnc2)o1` here?
Answer: inactive: -0.64%

Question: `COc1cc(I)ccc1[As](=O)(O)O` was tested. Which inhibition did it give?
Answer: inactive: -0.0224%

Question: For `COc1ccc2nc(NP(=O)(c3ccccc3)c3ccccc3)sc2c1`, which inhibition is on record?
Answer: inactive: -2%

Question: For `Cc1cc(=O)[nH]c(N[N+](=O)[O-])n1`, which inhibition is on record?
Answer: inactive: 0.854%

Question: Which inhibition does the source give for `O=C(OC1CN2CCC1CC2)C12CC3CC(CC(C3)C1)C2` (stereo unspecified) here?
Answer: inactive: 2.29%

Question: For `Cc1c2c(nc3ccccc13)SC(C(Cl)Cl)C2` (stereo unspecified), which inhibition is on record?
Answer: inactive: -3.21%

Question: How did the inhibition turn out when `COc1ccc(N/C(=N/P(=O)(N2CCOCC2)N2CCOCC2)N2CCOCC2)cc1` was run?
Answer: inactive: -4.82%

Question: With `O=C(Nc1ccncc1[N+](=O)[O-])c1ccc([N+](=O)[O-])cc1[N+](=O)[O-]` as the compound, how does the inhibition read?
Answer: inactive: 17.5%

Question: Which inhibition does the source give for `O=C(COc1ccccc1)OC1CN2CCC1CC2` (stereo unspecified) here?
Answer: inactive: -2.92%

Question: Which inhibition does the source give for `COP1(=S)c2c(C)nn(CCC#N)c2N=C(c2ccc(F)cc2)N1C` (stereo unspecified) here?
Answer: inactive: -2.04%

Question: With `CCC(C)N(CC(C)C)C(=S)SC(NC(C)=O)C(Cl)(Cl)Cl` (stereo unspecified) as the compound, how does the inhibition read?
Answer: inactive: -1.48%

Question: With `CCOC(=O)c1ccc(NC(=O)C(C)(CCl)SC)cc1` (stereo unspecified) as the compound, how does the inhibition read?
Answer: inactive: -0.13%

Question: For `O=C(OC1CN2CCC1CC2)c1cccc([N+](=O)[O-])c1` (stereo unspecified), which inhibition is on record?
Answer: inactive: -2.02%

Question: `Cc1cc(SC(NC(=O)c2ccccc2)C(Cl)(Cl)Cl)nc(C(C)C)n1` (stereo unspecified) was tested. Which inhibition did it give?
Answer: inactive: -0.767%

Question: How did the inhibition turn out when `CCOC(=O)Nc1ccc([As](=O)(O)O)c(O)c1` was run?
Answer: inactive: 0.789%

Question: Which inhibition does the source give for `O=[N+]([O-])c1ccc(Nc2ccc(Oc3ccc([N+](=O)[O-])cc3[N+](=O)[O-])cc2)c([N+](=O)[O-])c1` here?
Answer: inactive: -1.65%

Question: Which inhibition does the source give for `Cc1cc(SC(NC=O)C(Cl)(Cl)Cl)ncn1` (stereo unspecified) here?
Answer: inactive: -0.102%

Question: For `O=P(Nc1ccccn1)(c1cccc2ccccc12)c1cccc2ccccc12`, which inhibition is on record?
Answer: inactive: 1.16%

Question: Which inhibition does the source give for `CCOC(=O)Nc1cccc([As](=O)(O)O)c1` here?
Answer: inactive: -0.478%
